Measured values reported in US20150258192A1, “COMPOSITIONS AND METHODS FOR PREVENTING OR TREATING CHRONIC LUNG ALLOGRAFT DYSFUNCTION (CLAD) AND IDIOPATHIC PULMONARY FIBROSIS (IPF)” (priority 2014, published 2015).

By UniProt entry, the sequences of proteins in these tests, tags left out. Where a name states a change or a piece, a line headed by the entry shows the natural chain unless it says otherwise. Residues count along the entry.
UniProt Q15418, whole entry: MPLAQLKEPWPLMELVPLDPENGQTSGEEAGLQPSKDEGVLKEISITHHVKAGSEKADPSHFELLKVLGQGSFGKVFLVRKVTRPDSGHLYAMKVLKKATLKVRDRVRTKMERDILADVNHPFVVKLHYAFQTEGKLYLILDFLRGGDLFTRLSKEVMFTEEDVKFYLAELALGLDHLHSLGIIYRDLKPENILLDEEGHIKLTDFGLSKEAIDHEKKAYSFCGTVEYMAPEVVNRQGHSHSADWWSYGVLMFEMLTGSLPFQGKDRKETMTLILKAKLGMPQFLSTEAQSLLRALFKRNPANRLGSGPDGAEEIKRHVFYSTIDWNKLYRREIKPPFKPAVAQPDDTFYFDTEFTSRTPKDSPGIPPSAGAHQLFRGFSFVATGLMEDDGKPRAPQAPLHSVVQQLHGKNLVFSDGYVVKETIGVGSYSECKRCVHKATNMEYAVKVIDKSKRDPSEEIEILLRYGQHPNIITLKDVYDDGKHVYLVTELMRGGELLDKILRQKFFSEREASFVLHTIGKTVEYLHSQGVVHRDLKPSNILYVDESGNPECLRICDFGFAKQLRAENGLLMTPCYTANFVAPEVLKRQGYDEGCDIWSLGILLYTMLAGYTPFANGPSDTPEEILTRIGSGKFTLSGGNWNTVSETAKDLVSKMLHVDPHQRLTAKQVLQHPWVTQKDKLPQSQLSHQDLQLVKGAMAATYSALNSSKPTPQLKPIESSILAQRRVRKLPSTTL
UniProt P22607, 23-806: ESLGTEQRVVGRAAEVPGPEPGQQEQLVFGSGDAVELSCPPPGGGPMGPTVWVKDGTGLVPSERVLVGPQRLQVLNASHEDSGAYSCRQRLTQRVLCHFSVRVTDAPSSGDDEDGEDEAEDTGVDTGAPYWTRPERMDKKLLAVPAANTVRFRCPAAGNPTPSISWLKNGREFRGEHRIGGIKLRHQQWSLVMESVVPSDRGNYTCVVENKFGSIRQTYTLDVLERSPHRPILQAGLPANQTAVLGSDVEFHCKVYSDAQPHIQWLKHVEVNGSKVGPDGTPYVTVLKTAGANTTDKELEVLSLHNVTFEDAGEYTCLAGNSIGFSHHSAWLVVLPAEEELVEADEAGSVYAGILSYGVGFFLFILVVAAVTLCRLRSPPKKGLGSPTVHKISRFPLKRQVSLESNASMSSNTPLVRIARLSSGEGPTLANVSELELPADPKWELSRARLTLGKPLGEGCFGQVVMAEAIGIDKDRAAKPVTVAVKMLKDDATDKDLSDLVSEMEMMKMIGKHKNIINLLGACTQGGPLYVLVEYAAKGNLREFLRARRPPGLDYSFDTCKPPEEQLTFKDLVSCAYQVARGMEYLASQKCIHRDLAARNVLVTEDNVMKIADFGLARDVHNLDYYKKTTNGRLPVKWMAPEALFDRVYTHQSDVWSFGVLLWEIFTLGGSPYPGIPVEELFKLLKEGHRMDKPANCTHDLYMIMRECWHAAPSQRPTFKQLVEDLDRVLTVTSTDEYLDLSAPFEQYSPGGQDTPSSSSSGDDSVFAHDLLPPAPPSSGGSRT
UniProt Q8WTQ7: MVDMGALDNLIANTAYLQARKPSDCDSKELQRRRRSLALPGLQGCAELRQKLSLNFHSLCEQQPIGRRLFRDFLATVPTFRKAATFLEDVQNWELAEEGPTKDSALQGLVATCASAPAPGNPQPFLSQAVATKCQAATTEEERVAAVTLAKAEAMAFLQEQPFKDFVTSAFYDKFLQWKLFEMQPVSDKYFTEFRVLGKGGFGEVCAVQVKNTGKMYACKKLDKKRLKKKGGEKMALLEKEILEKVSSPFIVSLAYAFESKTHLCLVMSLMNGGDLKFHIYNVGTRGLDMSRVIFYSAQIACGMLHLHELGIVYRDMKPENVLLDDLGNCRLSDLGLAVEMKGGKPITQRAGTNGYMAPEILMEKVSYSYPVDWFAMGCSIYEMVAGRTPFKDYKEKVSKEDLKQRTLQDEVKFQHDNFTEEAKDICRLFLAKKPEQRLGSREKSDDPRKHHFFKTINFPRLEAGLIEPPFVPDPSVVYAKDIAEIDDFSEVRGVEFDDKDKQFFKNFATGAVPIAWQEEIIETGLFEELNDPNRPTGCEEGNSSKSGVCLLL
UniProt P22455, 22-802: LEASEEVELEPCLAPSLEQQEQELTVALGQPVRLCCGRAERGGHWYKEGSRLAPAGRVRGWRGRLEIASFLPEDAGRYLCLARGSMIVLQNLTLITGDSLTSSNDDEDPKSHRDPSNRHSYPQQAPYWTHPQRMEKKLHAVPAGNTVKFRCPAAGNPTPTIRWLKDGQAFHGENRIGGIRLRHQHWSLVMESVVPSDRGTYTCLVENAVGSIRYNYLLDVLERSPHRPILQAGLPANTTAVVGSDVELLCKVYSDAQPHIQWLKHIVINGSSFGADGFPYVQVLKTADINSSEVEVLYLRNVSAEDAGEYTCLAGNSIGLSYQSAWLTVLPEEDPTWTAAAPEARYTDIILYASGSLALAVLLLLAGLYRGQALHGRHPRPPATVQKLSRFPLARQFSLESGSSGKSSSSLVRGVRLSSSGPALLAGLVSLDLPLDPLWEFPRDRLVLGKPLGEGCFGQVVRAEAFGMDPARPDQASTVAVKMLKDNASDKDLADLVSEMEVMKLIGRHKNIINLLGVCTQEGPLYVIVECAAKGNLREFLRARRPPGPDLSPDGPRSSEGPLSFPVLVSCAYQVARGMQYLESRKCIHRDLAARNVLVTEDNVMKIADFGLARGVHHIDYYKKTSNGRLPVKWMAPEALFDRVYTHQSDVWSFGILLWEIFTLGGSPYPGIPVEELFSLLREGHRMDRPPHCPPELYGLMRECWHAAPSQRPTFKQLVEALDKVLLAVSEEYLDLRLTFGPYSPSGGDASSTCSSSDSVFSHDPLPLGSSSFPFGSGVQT
UniProt P08581, 25-1390: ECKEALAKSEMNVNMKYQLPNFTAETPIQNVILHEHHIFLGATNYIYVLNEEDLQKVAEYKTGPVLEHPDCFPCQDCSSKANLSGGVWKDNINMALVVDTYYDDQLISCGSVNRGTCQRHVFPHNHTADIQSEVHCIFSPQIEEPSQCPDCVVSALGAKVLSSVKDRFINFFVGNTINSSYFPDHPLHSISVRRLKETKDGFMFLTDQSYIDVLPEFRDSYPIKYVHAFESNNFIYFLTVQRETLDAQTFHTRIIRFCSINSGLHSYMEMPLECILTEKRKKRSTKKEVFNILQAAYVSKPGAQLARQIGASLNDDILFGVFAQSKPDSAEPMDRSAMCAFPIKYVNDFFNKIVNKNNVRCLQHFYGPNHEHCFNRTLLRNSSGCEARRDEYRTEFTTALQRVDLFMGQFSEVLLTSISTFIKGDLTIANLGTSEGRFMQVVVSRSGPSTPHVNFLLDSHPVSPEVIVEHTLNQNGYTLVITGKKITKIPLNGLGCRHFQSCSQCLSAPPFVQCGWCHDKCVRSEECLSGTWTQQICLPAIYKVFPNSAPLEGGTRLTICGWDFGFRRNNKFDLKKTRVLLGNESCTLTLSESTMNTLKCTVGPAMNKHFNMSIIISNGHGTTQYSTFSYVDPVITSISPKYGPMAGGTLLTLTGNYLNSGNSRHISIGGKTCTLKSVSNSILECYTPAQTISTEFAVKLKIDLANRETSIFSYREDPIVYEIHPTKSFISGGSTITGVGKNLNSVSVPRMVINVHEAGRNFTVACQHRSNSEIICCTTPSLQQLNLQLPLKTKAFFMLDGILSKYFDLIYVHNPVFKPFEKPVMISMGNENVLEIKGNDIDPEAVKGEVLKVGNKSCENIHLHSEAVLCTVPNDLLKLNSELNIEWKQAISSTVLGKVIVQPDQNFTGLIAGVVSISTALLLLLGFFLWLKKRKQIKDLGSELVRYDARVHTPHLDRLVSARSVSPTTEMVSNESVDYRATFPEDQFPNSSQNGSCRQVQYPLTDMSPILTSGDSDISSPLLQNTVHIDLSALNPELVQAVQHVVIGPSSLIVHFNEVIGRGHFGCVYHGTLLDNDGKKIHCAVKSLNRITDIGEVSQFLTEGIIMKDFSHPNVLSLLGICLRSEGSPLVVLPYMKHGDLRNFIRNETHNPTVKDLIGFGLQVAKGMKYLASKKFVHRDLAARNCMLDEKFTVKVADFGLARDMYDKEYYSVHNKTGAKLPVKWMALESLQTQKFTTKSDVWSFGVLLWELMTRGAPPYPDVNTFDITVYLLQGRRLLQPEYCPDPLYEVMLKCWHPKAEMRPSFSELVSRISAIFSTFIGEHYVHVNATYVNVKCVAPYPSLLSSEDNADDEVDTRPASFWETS
UniProt P15735: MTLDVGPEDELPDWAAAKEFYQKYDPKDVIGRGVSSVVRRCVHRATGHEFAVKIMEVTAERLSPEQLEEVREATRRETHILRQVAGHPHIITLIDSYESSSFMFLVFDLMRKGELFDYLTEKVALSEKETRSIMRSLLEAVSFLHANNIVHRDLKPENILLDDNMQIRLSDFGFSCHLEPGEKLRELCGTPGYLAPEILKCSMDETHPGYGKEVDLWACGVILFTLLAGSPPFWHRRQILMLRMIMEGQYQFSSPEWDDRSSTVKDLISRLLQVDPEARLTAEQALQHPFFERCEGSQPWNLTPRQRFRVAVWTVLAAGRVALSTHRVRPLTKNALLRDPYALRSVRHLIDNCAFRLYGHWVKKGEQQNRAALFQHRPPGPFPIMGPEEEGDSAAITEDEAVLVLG

Key:
Assay in all cases: Kinase Profiling Assay
Assay type in all cases: biochemical
Conditions in all cases: peptide 100 μM
MST2(h) = biological target: T1, MST2(h) (Homo sapiens, UniProt Q13188)
T1 construct: purchased Millipore
T1 sequence (Q13188 1-491): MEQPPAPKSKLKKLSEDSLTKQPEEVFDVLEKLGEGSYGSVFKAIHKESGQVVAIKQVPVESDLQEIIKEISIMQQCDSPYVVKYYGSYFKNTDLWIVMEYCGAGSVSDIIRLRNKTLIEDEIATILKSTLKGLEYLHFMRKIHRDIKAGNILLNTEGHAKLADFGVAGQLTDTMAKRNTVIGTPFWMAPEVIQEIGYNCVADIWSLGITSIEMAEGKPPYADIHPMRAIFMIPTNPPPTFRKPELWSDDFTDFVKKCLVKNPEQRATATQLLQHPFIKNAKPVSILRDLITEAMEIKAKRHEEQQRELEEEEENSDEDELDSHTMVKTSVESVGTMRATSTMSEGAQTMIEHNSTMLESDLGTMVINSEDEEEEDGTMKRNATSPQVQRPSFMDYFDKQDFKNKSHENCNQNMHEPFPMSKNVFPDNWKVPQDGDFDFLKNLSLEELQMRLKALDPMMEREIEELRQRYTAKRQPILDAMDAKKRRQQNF
Outline: (§1)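 Measured twice per kinase, activity in presence of MK2 inhibitory peptide was calculated against a 100% activity control after radiometric phosphorylation of a cationic substrate, anionic filter capture and scintillation counting; one of 266 human kinases profiled for specificity.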

Rsk1(h) = Rsk1(h) (Homo sapiens, UniProt Q15418)
Outline: as §1

PrKX(h) = biological target: T2, PrKX(h) (Homo sapiens, UniProt P51817)
T2 sequence (P51817 1-358): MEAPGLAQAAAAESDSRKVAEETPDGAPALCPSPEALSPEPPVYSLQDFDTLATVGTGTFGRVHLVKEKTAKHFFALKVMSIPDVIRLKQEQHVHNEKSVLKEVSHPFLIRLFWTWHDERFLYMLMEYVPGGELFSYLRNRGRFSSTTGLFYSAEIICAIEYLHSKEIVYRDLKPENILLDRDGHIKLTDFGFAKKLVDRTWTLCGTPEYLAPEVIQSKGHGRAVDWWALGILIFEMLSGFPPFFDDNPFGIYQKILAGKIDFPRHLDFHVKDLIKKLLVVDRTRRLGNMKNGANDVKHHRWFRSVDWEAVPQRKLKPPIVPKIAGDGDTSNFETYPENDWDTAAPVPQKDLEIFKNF
Outline: as §1

FGFR3(h) = FGFR3(h) (Homo sapiens, UniProt P22607)
Outline: as §1

GRK7(h) = biological target: T3, GRK7(h) (Homo sapiens, UniProt Q8WTQ7)
T3 construct: purchased Millipore
Outline: as §1

TSSK2(h) = TSSK2(h) (Homo sapiens, UniProt Q96PF2)
Outline: as §1

FGFR4(h) = FGFR4(h) (Homo sapiens, UniProt P22455)
Outline: as §1

Met(h) = biological target: T4, Met(h) (Homo sapiens, UniProt P08581)
T4 construct: purchased Millipore
Outline: as §1

PhKγ2(h) = PhKγ2(h) (Homo sapiens, UniProt P15735)
Outline: as §1

## YARAAARQARAKALNRQLGVA (Mammal) [MMI-0200]
MST2(h)
  % activity: 104%
Rsk1(h)
  % activity: 102%
PrKX(h)
  % activity: 112%

## FAKLAARLYRKALARQLGVAA [MMI-0300]
FGFR3(h)
  % activity: 102%

## CC(C)C[C@H](NC(=O)[C@H](C)NC(=O)[C@H](CCCCN)NC(=O)[C@H](C)NC(=O)[C@H](CCCNC(=N)N)NC(=O)[C@H](C)NC(=O)[C@H](CCC(N)=O)NC(=O)[C@H](CCCNC(=N)N)NC(=O)[C@H](C)NC(=O)[C@H](C)NC(=O)[C@H](C)NC(=O)[C@H](CCCNC(=N)N)NC(=O)[C@H](C)NC(=O)[C@@H](N)Cc1ccc(O)cc1)C(=O)N[C@@H](C)C(=O)N[C@@H](CCCNC(=N)N)C(=O)N[C@@H](CCC(N)=O)C(=O)N[C@@H](CC(C)C)C(=O)NCC(=O)N[C@H](C(=O)N[C@@H](C)C(=O)N[C@@H](C)C(=O)O)C(C)C [MMI-0100]
GRK7(h)
  % activity: 111%
TSSK2(h)
  % activity: 107%
FGFR4(h)
  % activity: 67%
Met(h)
  % activity: 104%
PhKγ2(h)
  % activity: 62%
